Data taken from article PMC6424611.

Columns and labels:
[1] = target: biotinylated RSK1 725-735 peptide, phosphorylated at Ser732 (position -3) (human) (UniProt Q15418); experiment: SPR
[2] = target: biotinylated RSK1 725-735 peptide, phosphorylated at Ser732 (position -3) (human) (UniProt Q15418); experiment: holdup assay
[3] = target: biotinylated RSK1 725-735 peptide, unphosphorylated (human) (UniProt Q15418); experiment: holdup assay
[4] = target: biotinylated RSK1 725-735 peptide, unphosphorylated (human) (UniProt Q15418); experiment: SPR
[5] = target: fluorescein labeled RSK1 729-735 peptide, phosphorylated (human) (UniProt Q15418); experiment: fluorescence polarisation

Substance: MBP-fused PDZ domain of SNX27 (from UniProt Q96L92 43-136) (domain or fragment)
- Kd [1]: 46 µM
- BI [2]: 0.47
- Kd [2]: 17.1 µM
- Kd [3]: > 100 µM

Substance: MBP-fused PDZ domain of GOPC (from UniProt Q9HD26 288-371) (domain or fragment)
- Kd [4]: 8.92 µM
- Kd [5]: > 100 µM
- BI [2]: 0.25
- BI [3]: 0.63
